The target of experiment [1] is Nuclear receptor subfamily 1 group I member 2 (Homo sapiens) (UniProt O75469). Description: Human pregnane X receptor (PXR) small molecule agonists, qHTS assay (AID 1346982). Also: nearly all actives have a fitted effect of over 35% in size. Also: potency is read from the fitted curve at half-maximal effect. Particulars: PXR-Luc HepG2, CYP3A4 luciferase reporter, 24 h; series mostly up to 42.5 µM. In short, it runs like this:
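After plating in 5% charcoal-stripped FBS and a 5 hr rest, PXR-Luc HepG2 cells received compounds in DMSO. Following 24 hr at 37 C, ONE-Glo was added and light output read.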
(qHTS replaces the single test concentration by a dilution series.)

Sequences of proteins named here, by UniProt entry; tags and fusion partners are left off. A change or cut given only in a name is not applied to a line headed by its entry.
UniProt Q12809: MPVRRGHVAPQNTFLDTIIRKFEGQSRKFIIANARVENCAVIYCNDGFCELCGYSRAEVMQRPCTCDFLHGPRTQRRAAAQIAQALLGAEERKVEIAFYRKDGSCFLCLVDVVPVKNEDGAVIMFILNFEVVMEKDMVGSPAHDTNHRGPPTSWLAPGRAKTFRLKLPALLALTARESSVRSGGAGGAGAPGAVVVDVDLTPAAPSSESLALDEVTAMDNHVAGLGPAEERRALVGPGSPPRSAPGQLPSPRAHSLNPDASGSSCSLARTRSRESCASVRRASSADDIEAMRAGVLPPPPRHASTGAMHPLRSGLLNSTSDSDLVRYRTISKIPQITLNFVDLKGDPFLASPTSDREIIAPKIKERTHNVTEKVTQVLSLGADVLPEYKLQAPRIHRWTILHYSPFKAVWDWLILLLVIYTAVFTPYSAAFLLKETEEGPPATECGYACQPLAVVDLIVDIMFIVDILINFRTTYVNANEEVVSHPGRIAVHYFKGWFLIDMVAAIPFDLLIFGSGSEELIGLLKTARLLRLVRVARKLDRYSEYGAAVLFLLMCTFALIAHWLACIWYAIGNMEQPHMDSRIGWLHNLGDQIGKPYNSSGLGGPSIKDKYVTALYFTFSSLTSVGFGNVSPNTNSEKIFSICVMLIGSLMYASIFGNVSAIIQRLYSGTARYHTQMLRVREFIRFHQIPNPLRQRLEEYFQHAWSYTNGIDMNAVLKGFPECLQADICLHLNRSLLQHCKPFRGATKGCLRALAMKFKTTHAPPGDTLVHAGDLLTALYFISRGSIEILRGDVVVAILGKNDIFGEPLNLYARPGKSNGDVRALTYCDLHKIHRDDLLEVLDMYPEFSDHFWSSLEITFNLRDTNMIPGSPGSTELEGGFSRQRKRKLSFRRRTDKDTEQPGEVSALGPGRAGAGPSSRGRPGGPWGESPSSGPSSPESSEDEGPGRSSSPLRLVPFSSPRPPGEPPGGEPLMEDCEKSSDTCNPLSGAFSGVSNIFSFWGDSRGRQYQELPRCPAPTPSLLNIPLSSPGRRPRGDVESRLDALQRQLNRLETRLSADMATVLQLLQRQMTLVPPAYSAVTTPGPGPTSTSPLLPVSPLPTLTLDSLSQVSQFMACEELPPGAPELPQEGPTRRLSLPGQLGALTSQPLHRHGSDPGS
UniProt P03372, whole entry, looked up: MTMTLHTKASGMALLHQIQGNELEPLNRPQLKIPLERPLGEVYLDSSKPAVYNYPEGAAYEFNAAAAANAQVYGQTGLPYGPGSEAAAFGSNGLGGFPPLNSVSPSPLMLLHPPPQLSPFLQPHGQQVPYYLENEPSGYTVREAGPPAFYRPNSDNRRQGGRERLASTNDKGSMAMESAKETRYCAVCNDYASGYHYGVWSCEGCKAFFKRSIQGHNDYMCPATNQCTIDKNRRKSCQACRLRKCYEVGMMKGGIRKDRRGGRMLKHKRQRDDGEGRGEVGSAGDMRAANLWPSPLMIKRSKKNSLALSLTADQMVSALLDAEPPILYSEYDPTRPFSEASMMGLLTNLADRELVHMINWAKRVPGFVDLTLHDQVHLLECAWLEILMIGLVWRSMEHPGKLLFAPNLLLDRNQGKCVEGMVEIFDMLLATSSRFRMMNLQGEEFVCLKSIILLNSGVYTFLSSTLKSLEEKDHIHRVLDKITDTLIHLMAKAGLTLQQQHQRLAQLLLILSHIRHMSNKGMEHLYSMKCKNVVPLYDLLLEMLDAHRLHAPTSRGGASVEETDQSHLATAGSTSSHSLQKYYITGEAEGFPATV
UniProt P33261, whole entry, looked up: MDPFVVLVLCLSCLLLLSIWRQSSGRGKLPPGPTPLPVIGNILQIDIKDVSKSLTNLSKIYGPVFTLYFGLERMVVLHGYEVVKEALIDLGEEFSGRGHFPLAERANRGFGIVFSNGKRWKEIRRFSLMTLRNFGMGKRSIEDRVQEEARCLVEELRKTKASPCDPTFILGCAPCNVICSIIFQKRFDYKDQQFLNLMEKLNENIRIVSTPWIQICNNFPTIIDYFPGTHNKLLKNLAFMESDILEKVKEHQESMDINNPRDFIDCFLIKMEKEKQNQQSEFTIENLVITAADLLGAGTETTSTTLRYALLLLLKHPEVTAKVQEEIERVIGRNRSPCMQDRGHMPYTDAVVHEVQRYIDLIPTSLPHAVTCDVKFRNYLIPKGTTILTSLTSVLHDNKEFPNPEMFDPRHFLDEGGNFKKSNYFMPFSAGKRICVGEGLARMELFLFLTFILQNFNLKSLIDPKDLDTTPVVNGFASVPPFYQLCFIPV
UniProt Q96RI1: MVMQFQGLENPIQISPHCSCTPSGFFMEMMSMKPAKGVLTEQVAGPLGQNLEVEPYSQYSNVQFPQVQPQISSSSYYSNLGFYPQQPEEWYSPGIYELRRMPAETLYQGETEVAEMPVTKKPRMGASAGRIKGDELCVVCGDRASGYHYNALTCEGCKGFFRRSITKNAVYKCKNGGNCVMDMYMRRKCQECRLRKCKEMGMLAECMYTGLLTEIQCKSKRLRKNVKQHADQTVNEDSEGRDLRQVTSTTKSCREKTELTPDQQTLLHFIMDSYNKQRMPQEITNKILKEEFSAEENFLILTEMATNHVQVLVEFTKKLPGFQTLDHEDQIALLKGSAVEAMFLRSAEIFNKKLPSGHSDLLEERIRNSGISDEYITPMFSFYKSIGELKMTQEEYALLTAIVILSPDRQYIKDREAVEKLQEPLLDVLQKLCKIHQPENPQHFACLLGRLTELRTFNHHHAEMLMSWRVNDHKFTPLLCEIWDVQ
UniProt P04150: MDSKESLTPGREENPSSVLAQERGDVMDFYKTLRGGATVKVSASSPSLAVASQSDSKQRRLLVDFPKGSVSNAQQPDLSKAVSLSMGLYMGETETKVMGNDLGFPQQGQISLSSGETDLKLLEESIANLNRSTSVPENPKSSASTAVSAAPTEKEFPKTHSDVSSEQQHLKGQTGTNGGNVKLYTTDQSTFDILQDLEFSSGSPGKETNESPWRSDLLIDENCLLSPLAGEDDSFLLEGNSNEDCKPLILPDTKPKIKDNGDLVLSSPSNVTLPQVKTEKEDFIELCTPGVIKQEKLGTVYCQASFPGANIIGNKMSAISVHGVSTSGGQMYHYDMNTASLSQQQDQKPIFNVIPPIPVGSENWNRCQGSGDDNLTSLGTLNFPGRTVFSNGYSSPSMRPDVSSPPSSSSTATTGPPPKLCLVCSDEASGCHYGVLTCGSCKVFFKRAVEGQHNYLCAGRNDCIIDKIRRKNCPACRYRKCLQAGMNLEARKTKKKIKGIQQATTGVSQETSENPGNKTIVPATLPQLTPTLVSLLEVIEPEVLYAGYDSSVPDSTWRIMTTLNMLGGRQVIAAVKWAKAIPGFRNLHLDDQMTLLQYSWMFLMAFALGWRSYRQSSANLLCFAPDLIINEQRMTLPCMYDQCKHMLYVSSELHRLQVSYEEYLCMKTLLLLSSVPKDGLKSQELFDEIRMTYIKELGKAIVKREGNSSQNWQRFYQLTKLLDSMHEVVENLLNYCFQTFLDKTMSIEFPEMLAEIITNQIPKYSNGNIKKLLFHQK

Experiment [2] shares this target. Description: CYP3A4 induction through human pregnane X receptor (PXR) by small molecules, qHTS assay (AID 1346984). Also: nearly all actives have a fitted effect of over 40% in size. Also: potency is read from the fitted curve at half-maximal effect. The conditions noted are these: DPX-2 HepG2 PXR, CYP3A4-luciferin luminescence, 24 h; series mostly up to 46.1 µM. In short, it runs like this:
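Human PXR activation is tracked via CYP3A4 promoter-luciferase in DPX-2 (HepG2) cells. Compounds treat cells for 24hr at 37C, and luminescence is read after One-Glo.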

For experiment [3] the target is unchanged. Description: Human pregnane X receptor (PXR) activation by small molecules, qHTS assay (AID 1346985). Also: nearly all actives have a fitted effect of over 40% in size. Also: potency is read from the fitted curve at half-maximal effect. The conditions noted are these: DPX-2 HepG2 CYP3A4-luciferase, 24 h; series mostly up to 38.3 µM.
The target in experiment [4] is Voltage-gated inwardly rectifying potassium channel KCNH2 (Homo sapiens) (UniProt Q12809). The experiment is described as follows: Human Ether-a-go-go-Related Gene (hERG) channel small molecule antagonists: fluorescence cell-based qHTS assay (AID 1671200). Also: potency is read from the fitted curve at half-maximal effect; nearly all actives have a fitted effect of over 50% in size. Particulars: hERG-U2OS cells, FluxOR thallium flux fluorescence. In short, it runs like this:
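hERG-U2OS cells plated overnight at 37 C, loaded with FluxOR II dye 1 h at RT in dark; after 10 min, thallium stimulus added. Fluorescence (480/540 nm) read kinetically for 2 min at 1 s intervals.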
(In general: Block of hERG is tested as a sign of cardiac risk.)

The target in experiment [5] is Estrogen receptor (Homo sapiens) (UniProt P03372). Description: qHTS assay to identify small molecule antagonists of the estrogen receptor alpha (ER-alpha) signaling pathway (AID 743069; active = well fitted curve in the direction sought with a large enough effect in the signal ratio in the repeat runs, not every such curve was filed as active; inconclusive = weak or mixed curves, or effect the other way; inactive = no such curve, though single readings can be large or run the other way; the % refers to the signal ratio; also: % is scaled to controls: 0 for no effect and ±100 for the full control effect). The conditions noted are these: HEK293 ER-alpha-UAS-bla, beta-lactamase ratio, antagonist mode; series mostly up to 69.4 µM.
The target is the same in experiment [6]. The experiment is described as follows: qHTS assay to identify small molecule agonists of the estrogen receptor alpha (ER-alpha) signaling pathway (AID 743075; calls by dose curve;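 also: HEK293 GripTite cells with ER-alpha and UAS-driven beta-lactamase reporter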; also: potency is read from the fitted curve at half-maximal effect). The conditions noted are these: HEK293 ER-alpha-UAS-bla, beta-lactamase FRET ratio, 18 h; series mostly up to 70.1 µM.
The target of experiment [7] is Cytochrome P450 2C19 (Homo sapiens) (UniProt P33261). Description: Cytochrome P450 Family 2 Subfamily C Member 19 (CYP2C19) small molecule antagonists: luciferase reporter qHTS assay (AID 1671197). Also: potency is read from the fitted curve at half-maximal effect; nearly all actives have a fitted effect of over 65% in size. The conditions noted are these: P450-Glo CYP2C19 enzyme, luciferin luminescence, 1 h. In short, it runs like this:
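Relative luminescence units recorded 20 min after the detection reagent stopped a 1 h, 37C CYP2C19 reaction on proluciferin substrate, which was started by NADPH regeneration following 10 min room-temperature compound preincubation; ketoconazole positive control.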
On the technique in general: In a reporter assay the amount or activity of a reporter protein is the signal.

The target of experiment [8] is Bile acid receptor (Homo sapiens) (UniProt Q96RI1). Description: qHTS assay to identify small molecule antagonists of the farnesoid-X-receptor (FXR) signaling pathway (AID 743217; active = well fitted inhibition curve with a large enough effect in the signal ratio in the repeat runs, not every such curve was filed as active; inconclusive = weak or mixed curves, or effect the other way; inactive = no such curve, though single readings can be large or run the other way; the % refers to the signal ratio; also: % is scaled to controls: 0 for no effect and ±100 for the full control effect). The conditions noted are these: HEK293T FXR-UAS-bla, beta-lactamase ratio, CDCA-stimulated, 16 h. In short, it runs like this: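 FRET fluorescence after 2 h room-temperature LiveBLAzer loading gives the readout. Prior step: FXR-bla HEK 293T cells, seeded and incubated 5 h, received test compounds plus 50 uM final CDCA for 16 h at 37 °C.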

The nature of experiment [9]: qHTS assay for small molecule disruptors of the mitochondrial membrane potential (AID 720635). Also: % is scaled to controls: 0 for no effect and ±100 for the full control effect. The conditions noted are these: HepG2 mitochondrial membrane potential, Mito-MPS dye ratio; at 83.2 µM (top of the series). In short, it runs like this: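 HepG2 cells (2,000/well) attached overnight at 37C, then took compound for 1 hr at 37C, 5% CO2. Mito-MPS dye was added for 30 min; fluorescence was read at 490/535 nm (monomers) and 540/590 nm (aggregates).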

The target of experiment [10] is Bile acid receptor (Homo sapiens) (UniProt Q96RI1). The experiment is described as follows: qHTS assay to identify small molecule agonists of the farnesoid-X-receptor (FXR) signaling pathway (AID 743220; active = well fitted activation curve with a large enough effect in the signal ratio in the repeat runs, not every such curve was filed as active; inconclusive = weak or mixed curves, or effect the other way; the % refers to the signal ratio; also: % is scaled to controls: 0 for no effect and ±100 for the full control effect). Particulars: HEK293T FXR-UAS-bla, beta-lactamase FRET ratio, 16 h.
The target of experiment [11] is Glucocorticoid receptor (Homo sapiens) (UniProt P04150). The experiment is described as follows: qHTS assay to identify small molecule antagonists of the glucocorticoid receptor (GR) signaling pathway (AID 720692; active = well fitted inhibition curve with a large enough effect in the signal ratio in the repeat runs, not every such curve was filed as active; inconclusive = weak or mixed curves, or effect the other way; inactive = no such curve, though single readings can be large or run the other way; the % refers to the signal ratio; also: % is scaled to controls: 0 for no effect and ±100 for the full control effect). The conditions noted are these: GR-bla HeLa, beta-lactamase FRET ratio, dexamethasone-stimulated, 18 h; at 58.5 µM (top of the series).

“And” between values parts separate entries of the source, which are not always exact repeats. Identical values can stand only once. For some assays here: This list holds what a sample rich in hits left over. This is a selection; strong and weak results do not stand in their true shares. The source made the active and inactive calls. Unless noted, calls follow the shape of the dose curve; as a rule, active = well fitted curve in the direction sought with a large enough effect in the repeat runs; inconclusive = weak or mixed curves; inactive = no such curve, though single readings can be large; an effect the other way counts as inactive or inconclusive.

Experimental findings from PubChem BioAssay (Tox21) are described below.

For the molecule `CS(=O)(=O)Nc1ccc([N+](=O)[O-])cc1Oc1ccccc1`, the Potency result in [1], in [2] and in experiment [3] was “inactive” throughout. Take `O=C(O)/C=C/c1ccc(Cn2ccnc2)cc1`: the Potency entry in [1], in [2] and in experiment [3] was “inactive” throughout. For `ClC(Cl)Cl`, the Potency result in [1], in [2] and in experiment [3] was “inactive” throughout. For `CN1C(=O)CC(c2ccccc2)C1=O` (centres undefined), the Potency result in experiment [1], in experiment [2] and in [3] was “inactive” each time.

For `CCCN1CCCC[C@H]1C(=O)Nc1c(C)cccc1C`, the Potency result in experiment [1] was “inactive”. The same measure, in the same setting: as for `O=NO`, the entry is “inactive”. On the same count and under the same terms, for `C[N+](C)(C)CC(O)CC(=O)[O-]` (centres undefined) the value was “inactive”; for `CCN1CCC[C@H]1CNC(=O)c1cc(S(N)(=O)=O)ccc1OC`, “inactive”. The same measure, in the same setting: as for `OCCOCCN1CCN(C2=Nc3ccccc3Sc3ccccc32)CC1`, the figure is active: 16.8 µM and active: 18.8 µM.

As for `C#C[C@]1(O)CC[C@H]2[C@@H]3CCc4cc(O)ccc4[C@H]3CC[C@@]21C`, the Potency in experiment [1] is active: 27.1 µM and active: 27.3 µM and active: 23.7 µM. Consider `CC(N)CCCC(C)(C)O` (centres undefined), for which the Potency result in [1], in experiment [2] and in experiment [3] was “inactive” in each case. On to `Nc1nnc(-c2cccc(Cl)c2Cl)c(N)n1`, for which the Potency result in experiment [1] was “inactive”. On the same count and under the same terms, as for `CCCc1ncc(C[n+]2ccccc2C)c(N)n1`, the entry is “inactive”. Turning to `NC(=O)NC1NC(=O)NC1=O` (centres undefined), the Potency result in experiment [2] and in experiment [3] was “inactive” in each case. As for `CC(=O)OCC1=C(C(=O)O)N2C(=O)[C@@H](NC(=O)CSc3ccncc3)[C@H]2SC1`, the Potency entry in [1], in experiment [2] and in experiment [3] was “inactive” in each case. `COc1c2occc2c(OC)c2c(=O)cc(C)oc12`: the Potency result in experiment [1], in experiment [2] and in experiment [3] was “inactive” throughout. Turning to `CCCCNC(=O)NS(=O)(=O)c1ccc(C)cc1`, the Potency result in experiment [1] is “inactive”. On to `O=C(O)c1cccnc1`, for which, in [1], the Potency entry is “inactive”.

In the case of `CCOCCn1c(N2CCCN(C)CC2)nc2ccccc21`, the Potency entry in [1], in experiment [2] and in [3] was “inactive” in each case. With `NS(=O)(=O)Cc1noc2ccccc12`, the Potency result in experiment [1], in experiment [2] and in [3] was “inactive” each time. Turning to `NCCNCCNCCN`, the Potency entry in experiment [2] and in [3] was “inactive” each time. As to `C[C@@H](O)[C@H]1C(=O)N2C(C(=O)O)=C(S[C@@H]3CN[C@H](CNS(N)(=O)=O)C3)[C@H](C)[C@H]12`, the Potency in experiment [4] was active: 9.52 µM. With `CC[C@H](C)[C@@H]1NC(=O)[C@H](Cc2ccc(O)cc2)NC(=O)[C@@H](N)CSSC[C@@H](C(=O)N2CCC[C@H]2C(=O)N[C@@H](CC(C)C)C(=O)NCC(N)=O)NC(=O)[C@H](CC(N)=O)NC(=O)[C@H](CCC(N)=O)NC1=O`, in experiment [5], the Potency result is “inactive”. Besides, the Potency in experiment [6] was active: 16.9 µM [inconclusive].

Regarding `CCNC(=O)[C@@H]1CCCN1C(=O)[C@H](CCCN=C(N)N)NC(=O)[C@H](CC(C)C)NC(=O)[C@@H](CC(C)C)NC(=O)[C@H](Cc1ccc(O)cc1)NC(=O)[C@H](CO)NC(=O)[C@H](Cc1c[nH]c2ccccc12)NC(=O)[C@H](Cc1cnc[nH]1)NC(=O)[C@@H]1CCC(=O)N1`, the Potency result in experiment [5] and in [6] was “inactive” throughout. In the case of `CC(C)COCC(CN(Cc1ccccc1)c1ccccc1)N1CCCC1` (centres undefined), the Potency in [4] is active: 0.477 µM. For the molecule `CCN(CC)C(=S)SSC(=S)N(CC)CC`, in experiment [7], the Potency is active: 15.9 µM and active: 5.15 µM and active: 3.89 µM. Regarding `Cc1ccc2c(c1)c1c3n2CCNC3CCC1` (centres undefined), the Potency result in experiment [2] and in [3] was “inactive” each time. For `O=C(NCCO[N+](=O)[O-])c1cccnc1`, the Potency result in experiment [2] and in experiment [3] was “inactive” in each case. Consider `COCCCOc1ccnc(CS(=O)c2nc3ccccc3[nH]2)c1C` (centres undefined), for which the Potency result in experiment [2] was “inactive”. Further, in [3], the Potency is active: 12.6 µM. Turning to `CN(C)CCC[C@@]1(c2ccc(F)cc2)OCc2cc(C#N)ccc21`, in [8] (at 62.6 µM (top of the series)), the activity change, negative = inhibition was inactive: -13.3%. Turning to `CC(C)C[C@H](NC(=O)[C@@H](COC(C)(C)C)NC(=O)[C@H](Cc1ccc(O)cc1)NC(=O)[C@H](CO)NC(=O)[C@H](Cc1c[nH]c2ccccc12)NC(=O)[C@H](Cc1cnc[nH]1)NC(=O)[C@@H]1CCC(=O)N1)C(=O)N[C@@H](CCCN=C(N)N)C(=O)N1CCC[C@H]1C(=O)NNC(N)=O`, the Potency result in experiment [5] and in experiment [6] was “inactive” in each case. For `CN1CCC[C@@H]1CCO[C@](C)(c1ccccc1)c1ccc(Cl)cc1`, the Potency was active: 15.8 µM in experiment [2] and active: 25.1 µM in experiment [3].

As to `CCOC(=O)[C@H](CCc1ccccc1)N[C@@H](C)C(=O)N1CCC[C@H]1C(=O)O`, the Potency result in [2] and in [3] was “inactive” throughout. Take `CC1(C)[C@@H](OC(=O)CCC(=O)O)CC[C@]2(C)[C@H]3C(=O)C=C4[C@@H]5C[C@@](C)(C(=O)O)CC[C@]5(C)CC[C@@]4(C)[C@]3(C)CC[C@@H]12`: the Potency result in experiment [2] and in [3] was “inactive” in each case.

In the case of `COc1ccc(C[C@H](C)NC[C@@H](O)c2ccc(O)c(NC=O)c2)cc1`, the ratio activity, negative = MMP loss in experiment [9] was inactive: 15%. `CC(O)CO` (centres undefined): the activity change, negative = inhibition in experiment [8] (at 5.95 µM (top of the series)) was inactive: 2.93%; in experiment [8] (at 62.6 µM (top of the series)), inactive: 9.9%. Also, the activation is inactive: 1.35% in experiment [10] (at 5.95 µM (top of the series)); inactive: -2.74% and inactive: 0.524% in experiment [10] (at 62.6 µM (top of the series)). On to `C[C@H]1C[C@H]2[C@@H]3CCC4=CC(=O)C=C[C@]4(C)[C@@]3(F)[C@@H](O)C[C@]2(C)[C@@]1(O)C(=O)CO`, for which the Potency result in experiment [3] was “inactive”. `CO/N=C(/C(=O)N[C@@H]1C(=O)N2C(C(=O)O)=C(COC(N)=O)CS[C@H]12)c1ccco1`: the Potency result in [2] and in [3] was “inactive” in each case.

Take `CC(C)[N+]1(C)[C@@H]2CC[C@H]1CC(OC(=O)C(CO)c1ccccc1)C2` (some centres undefined): the activity change, negative = inhibition in experiment [11] was inactive: 3.7% and inactive: -5.09%. In the case of `CC1=C(C(=O)O)N2C(=O)[C@@H](NC(=O)[C@H](N)c3ccc(O)cc3)[C@H]2SC1`, the Potency entry in [2] and in [3] was “inactive” in each case.
